# Membrane permeability of cyclic peptides

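Lipid, pH, incubation time, direction and concentration are not recorded in the data file. Other peptides of the study may be missing here. Entries at the database's floor value (log10 P of -10) are not listed.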

PAMPA is the parallel artificial membrane permeability assay, which has no cells and reads passive diffusion.
Values are log10 P with P in cm/s, so -5 is more permeable than -7.

{"smiles": "CC(C)C[C@@H]1NC(=O)[C@H]2CCCN2C(=O)CN(Cc2ccccc2)C(=O)[C@H](CC(C)C)N(C)C(=O)[C@@H](C)N(C)C(=O)[C@@H]2CCCN2C(=O)[C@H](Cc2ccccc2)NC1=O", "PAMPA (log10 cm/s)": "-6.53"}
{"smiles": "CC(C)C[C@@H]1C(=O)N(C)[C@H](CC(C)C)C(=O)N2CCC[C@@H]2C(=O)N(C)[C@H](CC(C)C)C(=O)N[C@@H](Cc2ccccc2)C(=O)N2CCC[C@@H]2C(=O)N[C@@H](C)C(=O)N1C", "PAMPA (log10 cm/s)": "-6.07"}
{"smiles": "CC(C)C[C@@H]1C(=O)N[C@@H](Cc2ccccc2)C(=O)N2CCC[C@H]2C(=O)N[C@H](C)C(=O)N(C)[C@@H](CC(C)C)C(=O)N(C)[C@@H](CC(C)C)C(=O)N2CCC[C@H]2C(=O)N1C", "PAMPA (log10 cm/s)": "-5.50"}
{"smiles": "CC(C)C[C@@H]1NC(=O)C[C@H](Cc2ccccc2)NC(=O)[C@H]2CCCN2C(=O)[C@H](Cc2ccccc2)NC(=O)[C@@H](CC(C)C)N(C)C(=O)[C@H]2CCCN2C(=O)C[C@H](Cc2ccccc2)NC1=O", "PAMPA (log10 cm/s)": "-5.88"}
{"smiles": "CC(C)C[C@@H]1NC(=O)[C@H](CC(C)C)N(C)C(=O)[C@@H](C)NC(=O)[C@H](Cc2ccccc2)NC(=O)[C@@H](CC(C)C)NC(=O)[C@@H]2CCCN2C1=O", "PAMPA (log10 cm/s)": "-5.83"}
{"smiles": "CC(C)C[C@@H]1NC(=O)[C@H]2CCCN2C(=O)[C@H](CC(C)C)N(C)C(=O)[C@H](CC(C)C)NC(=O)C[C@H](Cc2ccccc2)NC(=O)[C@H]2CCCN2C(=O)[C@H](Cc2ccccc2)NC1=O", "PAMPA (log10 cm/s)": "-5.86"}
{"smiles": "CC(C)C[C@@H]1C(=O)N[C@@H](Cc2ccccc2)C(=O)N2CCC[C@@H]2C(=O)N(C)[C@@H](C)C(=O)N(C)[C@@H](CC(C)C)C(=O)N[C@H](CC(C)C)C(=O)N2CCC[C@H]2C(=O)N1C", "PAMPA (log10 cm/s)": "-5.73"}
{"smiles": "CC(C)C[C@@H]1NC(=O)[C@@H](C)N(C)C(=O)[C@H](Cc2ccccc2)NC(=O)CN(Cc2ccccc2)C(=O)[C@@H]2CCCN2C(=O)C[C@H](Cc2ccccc2)NC1=O", "PAMPA (log10 cm/s)": "-6.01"}
{"smiles": "CC(C)C[C@@H]1C(=O)N[C@@H](Cc2ccccc2)C(=O)N2CCC[C@@H]2C(=O)N(C)[C@H](C)C(=O)N[C@H](CC(C)C)C(=O)N(C)[C@H](CC(C)C)C(=O)N2CCC[C@@H]2C(=O)N1C", "PAMPA (log10 cm/s)": "-5.78"}
{"smiles": "CCCN1CC(=O)N[C@@H](CC(C)C)C(=O)N(Cc2ccccc2)CC(=O)N2CCC[C@H]2C(=O)N[C@H](CC(C)C)C(=O)N[C@@H](Cc2ccccc2)C(=O)N2CCC[C@H]2C1=O", "PAMPA (log10 cm/s)": "-5.95"}
{"smiles": "CCCN1CC(=O)N(C)[C@H](CC(C)C)C(=O)N(C)[C@@H](CC(C)C)C(=O)N2CCC[C@@H]2C(=O)N(C)[C@H](CC(C)C)C(=O)N[C@@H](Cc2ccccc2)C(=O)N2CCC[C@H]2C1=O", "PAMPA (log10 cm/s)": "-4.96"}
{"smiles": "CC(C)C[C@@H]1C(=O)N[C@H](CC(C)C)C(=O)N2CCC[C@H]2C(=O)N(C)[C@H](CC(C)C)C(=O)N[C@@H](Cc2ccccc2)C(=O)N2CCC[C@H]2C(=O)N[C@H](C)C(=O)N1C", "PAMPA (log10 cm/s)": "-5.82"}
{"smiles": "CC(C)C[C@@H]1C(=O)N2CCC[C@H]2C(=O)N(Cc2ccccc2)CC(=O)N[C@@H](Cc2ccccc2)C(=O)N2CCC[C@H]2C(=O)N[C@H](C)C(=O)N(C)[C@@H](CC(C)C)C(=O)N1C", "PAMPA (log10 cm/s)": "-5.36"}
{"smiles": "CC(C)C[C@H]1C(=O)N(C)[C@@H](CC(C)C)C(=O)N2CCC[C@@H]2C(=O)N(Cc2ccccc2)CC(=O)N[C@@H](Cc2ccccc2)C(=O)N2CCC[C@@H]2C(=O)N(C)[C@@H](C)C(=O)N1C", "PAMPA (log10 cm/s)": "-5.15"}
{"smiles": "CC(C)C[C@H]1NC(=O)[C@H](C)N(C)C(=O)[C@@H]2CCCN2C(=O)[C@H](Cc2ccccc2)NC(=O)CN(Cc2ccccc2)C(=O)[C@@H]2CCCN2C(=O)C[C@H](Cc2ccccc2)NC1=O", "PAMPA (log10 cm/s)": "-6.17"}
{"smiles": "CCCN1CC(=O)N[C@H](CC(C)C)C(=O)N(C)[C@@H](CC(C)C)C(=O)N2CCC[C@H]2C(=O)N[C@H](CC(C)C)C(=O)N[C@@H](Cc2ccccc2)C(=O)N2CCC[C@@H]2C1=O", "PAMPA (log10 cm/s)": "-5.67"}
{"smiles": "CC(C)C[C@H]1NC(=O)[C@@H]2CCCN2C(=O)CN(Cc2ccccc2)C(=O)[C@H](CC(C)C)N(C)C(=O)[C@H](C)NC(=O)[C@H](Cc2ccccc2)NC1=O", "PAMPA (log10 cm/s)": "-6.07"}
{"smiles": "CC(C)C[C@@H]1NC(=O)C[C@H](Cc2ccccc2)NC(=O)[C@@H]2CCCN2C(=O)[C@H](Cc2ccccc2)NC(=O)[C@@H](CC(C)C)N(C)C(=O)[C@@H]2CCCN2C(=O)[C@H](CC(C)C)NC1=O", "PAMPA (log10 cm/s)": "-5.65"}
{"smiles": "CC(C)C[C@@H]1NC(=O)[C@H](C)N(C)C(=O)[C@H](Cc2ccccc2)NC(=O)[C@@H](CC(C)C)N(C)C(=O)[C@@H]2CCCN2C(=O)CN(Cc2ccccc2)C1=O", "PAMPA (log10 cm/s)": "-4.99"}
{"smiles": "CC(C)C[C@@H]1C(=O)N(C)[C@H](CC(C)C)C(=O)N2CCC[C@H]2C(=O)N(C)[C@H](CC(C)C)C(=O)N[C@@H](Cc2ccccc2)C(=O)N2CCC[C@H]2C(=O)N[C@@H](C)C(=O)N1C", "PAMPA (log10 cm/s)": "-5.20"}
{"smiles": "CC(C)C[C@@H]1NC(=O)[C@@H](C)N(C)C(=O)[C@H]2CCCN2C(=O)[C@H](Cc2ccccc2)NC(=O)[C@H](CC(C)C)N(C)C(=O)[C@@H]2CCCN2C(=O)[C@H](CC(C)C)NC1=O", "PAMPA (log10 cm/s)": "-5.45"}
{"smiles": "CC(C)C[C@@H]1C(=O)N[C@H](CC(C)C)C(=O)N2CCC[C@@H]2C(=O)N(C)[C@H](CC(C)C)C(=O)N[C@@H](Cc2ccccc2)C(=O)N2CCC[C@@H]2C(=O)N[C@@H](C)C(=O)N1C", "PAMPA (log10 cm/s)": "-5.31"}

A selection of 2 entries from above:

| structure (SMILES) | PAMPA (log10 cm/s) |
|---|---|
| CC(C)C[C@@H]1NC(=O)C[C@H](Cc2ccccc2)NC(=O)[C@H]2CCCN2C(=O)[C@H](Cc2ccccc2)NC(=O)[C@@H](CC(C)C)N(C)C(=O)[C@H]2CCCN2C(=O)C[C@H](Cc2ccccc2)NC1=O | -5.88 |
| CC(C)C[C@@H]1C(=O)N(C)[C@H](CC(C)C)C(=O)N2CCC[C@@H]2C(=O)N(C)[C@H](CC(C)C)C(=O)N[C@@H](Cc2ccccc2)C(=O)N2CCC[C@@H]2C(=O)N[C@@H](C)C(=O)N1C | -6.07 |

Collected by the curators of CycPeptMPDB (Li et al. 2023) from Townsend et al. 2020, doi:10.26434/chemrxiv.13335941.v1.